The data set can be described thus: in vivo. The settings on record: mouse, oral, mice died within a week, probit method. How it is done:
ddY male mice (body weight about 23 g) were fasted overnight, and the test compound dissolved or suspended in a 1% gum arabic solution administered orally. From the number of mice died within a week, the LD50 value was calculated by the probit method.

A word on the LD50: it is the dose expected to kill half of the subjects tested.

As for `O=C([O-])c1ccccc1Nc1cc(Cl)ccc1C(=O)[O-].[Na+].[Na+]` [Lobenzarit disodium, N-(2-carboxyphenyl)-4-chloroanthranilic acid disodium salt], the LD50 at 168 h turned out to be 593 mg/kg.

The values above are taken from US4910211A, “Novel benzothiazole and antirheumatic agent comprising it as an active ingredient” (Kanebo Ltd., priority 1987, dated 1990).
